Results: BindingDB's records for PubMed 1738111 (University of Texas, 1992)

Chains of the proteins cited; added tags and fusions are not shown.
UniProt P28564, whole entry: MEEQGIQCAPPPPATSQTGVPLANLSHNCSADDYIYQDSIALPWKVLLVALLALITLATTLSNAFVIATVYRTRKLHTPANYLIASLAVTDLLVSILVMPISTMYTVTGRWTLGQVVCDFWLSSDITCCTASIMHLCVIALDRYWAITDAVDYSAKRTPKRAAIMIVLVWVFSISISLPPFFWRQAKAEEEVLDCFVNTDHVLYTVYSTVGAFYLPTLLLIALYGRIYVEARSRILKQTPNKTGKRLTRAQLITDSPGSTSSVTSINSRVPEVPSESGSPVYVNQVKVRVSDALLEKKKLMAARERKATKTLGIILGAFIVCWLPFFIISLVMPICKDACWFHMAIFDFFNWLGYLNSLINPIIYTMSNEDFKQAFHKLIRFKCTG

Target: 5-hydroxytryptamine receptor 1B (Rattus norvegicus, UniProt P28564)

`CCCN(CCC)C1CCc2cccc(O)c2C1` (stereo unspecified) was tested. Which pKi did it give?
The pKi was < 5.00.

pKi: −log10 of the molar value.
